The assay deals with 5-hydroxytryptamine receptor 1A (Rattus norvegicus, UniProt P19327). Put plainly: In vitro ability to displace [3H]8-hydroxy-2-(di-n-propylamino) tetralin binding from 5-hydroxytryptamine 1A receptor site in rat brain hippocampus. It counts as tissue-based.

Sequences of proteins named here, by UniProt entry; tags and fusion partners are left off.
UniProt P19327, whole entry: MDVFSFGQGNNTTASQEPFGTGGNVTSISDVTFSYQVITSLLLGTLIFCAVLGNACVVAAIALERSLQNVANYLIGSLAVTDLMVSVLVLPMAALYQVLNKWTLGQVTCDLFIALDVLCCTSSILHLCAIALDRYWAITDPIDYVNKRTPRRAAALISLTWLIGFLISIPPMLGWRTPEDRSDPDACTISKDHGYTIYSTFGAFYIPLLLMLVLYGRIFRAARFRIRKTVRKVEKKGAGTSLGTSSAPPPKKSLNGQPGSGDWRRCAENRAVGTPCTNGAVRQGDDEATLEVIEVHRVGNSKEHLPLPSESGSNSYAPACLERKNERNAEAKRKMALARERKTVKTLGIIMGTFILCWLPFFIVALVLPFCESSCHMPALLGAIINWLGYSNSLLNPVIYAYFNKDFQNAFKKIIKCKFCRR

One molecule from ChEMBL document CHEMBL1126240, “Structure-activity relationship studies of central nervous system agents. 5. Effect of the hydrocarbon chain on the affinity of 4-substituted 1-(3-chlorophenyl)piperazines for 5-HT1A receptor site” (J Med Chem, 1992) can be followed below.

By Ki is commonly meant the dissociation constant of the complex between target and ligand, obtained from inhibition or displacement. Read a low Ki as higher affinity.

`CC1(C)CC(=O)N(CCCCN2CCN(c3ncccn3)CC2)C(=O)C1` [GEPIRONE]: the Ki came out at 31.8 nM.
